# High-throughput results from PubChem BioAssay.
# In the library only some 16% were active in any assay of this set; here they are far more common.
# TDP1 block: blocks human tyrosyl-DNA phosphodiesterase 1. hit rate 0.28% among 350,000. recombinant TDP1, AlphaScreen DNA substrate cleavage. Potency, µM (top dose mostly 130 µM), for the others: at the highest dose activity change, negative = inhibition, actives largely listed as inhibitors; further: potency means the concentration at half of the fitted maximal effect; on the % scale 0 is the no-effect control and ±100 the full control effect; nearly all actives have a fitted effect of over 40% in size
#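 Steps: enzyme plus compound, 15 min RT; add biotin/phosphotyrosine-FITC oligonucleotide (15 nM final), react 5 min; add donor/acceptor beads (10 ug/ml final), 10 min; read AlphaScreen. Tdp1 at 1 nM final.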
# DT40 TDP1 no CPT: qHTS for Inhibitors of human tyrosyl-DNA phosphodiesterase 1 (TDP1): qHTS in cells in absence of CPT; DT40 Tdp1-/- hTDP1 cells, no CPT, ATP luminescence, 48 h; hit rate 15% among 420,000; Potency, µM (series often up to 46.2 µM), inactives show top-dose activity change, negative = growth inhibition, actives largely listed as inhibitors; further: potency means the concentration at half of the fitted maximal effect; on the % scale 0 is the no-effect control and ±100 the full control effect; nearly all actives have a fitted effect of over 55% in size
#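 Chicken DT40 Tdp1-/- cells stably complemented with human TDP1 were seeded at 400 cells/well with DMSO in place of 20 nM camptothecin. After compound pinning, cells grew at least 48 hr at 37 °C; viability read by CellTiter-Glo luminescence.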
# TDP1 cell CPT: growth inhibition of DT40 Tdp1-/-;hTDP1 cells with camptothecin (screen for TDP1 inhibitors) | chicken DT40 Tdp1-/-;hTDP1 cells + 20 nM CPT, ATP luminescence, 48 h | Potency, µM (doses to about 46.2 µM), for inactives: at the top dose activity change, negative = growth inhibition, most hits filed as inhibitors | hit rate 12% among 420,000 | AID 686979; further: potency means the concentration at half of the fitted maximal effect; on the % scale 0 is the no-effect control and ±100 the full control effect; nearly all actives have a fitted effect of over 55% in size
#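 Chicken DT40 Tdp1-/- cells stably complemented with human TDP1 were seeded at 400 cells/well in medium containing 20 nM camptothecin, exposed to pin-transferred compounds, and grown at 37 °C for at least 48 hr. Viability was read as ATP luminescence.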
# uPA generation: cell surface uPA generation inhibition; Potency, µM (doses to about 38.3 µM), without a hit: at the highest dose activity change, negative = inhibition, most hits filed as inhibitors; hit rate 0.31% among 330,000; cell surface uPA generation assay, qHTS; AID 540303; active means well fitted inhibition curve with a large enough effect; inconclusive means small, poorly fitted or top-dose-only effect; inactive means no such curve, though single readings can be large or run the other way; tested in mouse RAW 264.7 cells; further: potency means the concentration at half of the fitted maximal effect; on the % scale 0 is the no-effect control and ±100 the full control effect; nearly all actives have a fitted effect of over 55% in size
# miR-21 reporter: raises the signal of a miR-21 reporter | HeLa miR-21 FLuc reporter, luciferase, 48 h | Potency, µM (doses to about 38.3 µM), for the others: at the highest dose reporter change, positive = more light | 340,000 tested, under 10 active | AID 2288; active = well fitted rising curve with a large enough effect; inconclusive = small, poorly fitted or top-dose-only effect; inactive = no such curve, though single readings can be large or run the other way;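 also: % of control where 0% means no effect; miR-21 action dims this reporter so a rising signal means less miR-21 action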
#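 HeLa cells endogenously expressing miR-21, stably carrying CMV-driven firefly luciferase with a downstream miR-21 binding site, 2000 cells/well. Titrations up to approximately 40 uM, 48 hours; luciferase luminescence read.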
# * hit, by the source's call; ? = inconclusive; . = not tested or not shown; ! = a repeat was not active; [ ] = another dose, or the depositor's remark. Unless noted, the call rests on the fitted dose curve; in most records, active means well fitted curve in the direction sought with a large enough effect; inconclusive means small, poorly fitted or top-dose-only effect, or another doubt; inactive means no such curve, though single readings can be large; an effect the other way counts as inactive or inconclusive.
[1] CSc1ncccc1C(=O)Nc1cccc(S(=O)(=O)N2CCCCC2)c1
[2] CSc1ncccc1C(=O)Nc1ccc(S(=O)(=O)N2CCCC2)cc1
[3] CCS(=O)(=O)N1Cc2ccccc2CC1C(=O)NC(C)C12CC3CC(CC(C3)C1)C2 (stereo not given)
[4] COc1cc(OC)c(C=CC(=O)c2ccccc2O)c(OC)c1
[5] CCCC[n+]1c(/C=C/c2c(OC)cc(OC)cc2OC)ccc2ccccc21
[6] COc1cc(OC)c(/C=C/c2ccc3ccccc3[n+]2C)c(OC)c1
[7] CCC[n+]1c(/C=C/c2c(OC)cc(OC)cc2OC)ccc2ccccc21
[8] Cc1ncc(CN2CCC(C(=O)Nc3cccc(-c4cscn4)c3)CC2)cn1
[9] Cc1ccc(NC(=O)c2ccncc2)cc1S(=O)(=O)N(C)C
[10] Cc1ccc(NC(=O)c2ccc(OC(F)(F)F)cc2)cc1S(=O)(=O)N(C)C
Assay by compound	1	2	3	4	5	6	7	8	9	10
miR-21 reporter	.	.	-3.0%	.	.	.	.	15.6%	-7.9%	24.1%
DT40 TDP1 no CPT	14.6µM*	-9.8%	?	?	0.0891µM*	0.1µM*	0.0891µM*	?	-17.3%	25.9µM*
TDP1 cell CPT	?	-3.2%	?	?	0.316µM*	0.1µM*	0.112µM*	?	1.2%	?
TDP1 block	0.6%[56.1 µM]	1.6%	5.1%	.	.	.	.	3.0%	-0.6%	-2.7%
uPA generation	-23.5%	10.1%	4.9%	-8.0%	.	.	.	-2.9%	8.1%	-2.5%

[11] CCCCN1C(=O)c2ccc(C(=O)Nc3cccc(C)c3C)cc2C1=O
[12] CCCCN1C(=O)c2ccc(C(=O)Nc3ccc(C)c(S(=O)(=O)N(C)C)c3)cc2C1=O
[13] O=C(Cc1ccccc1)Nc1cc2c(cc1Cl)OCCCO2
[14] CCCS(=O)(=O)c1c(S(=O)(=O)CCC)c2c(C)cccn2c1C(=O)N/N=C/c1cc(O)cc(O)c1
[15] CCCS(=O)(=O)c1c(S(=O)(=O)CCC)c2c(C)cccn2c1C(N)=O
[16] C=C(C)C(O)/C=C/CCCCCCC (stereo not given)
[17] CCOc1cccc(NC(=O)C2CC(=O)N(C)C(=Nc3cccc(F)c3)S2)c1 (stereo not given)
[18] COc1ccc(CNC(=O)Cc2cccs2)cc1
[19] Cc1occc1C(=O)NCc1cccs1
[20] CCN(CC(=O)NCc1cccs1)C(=O)c1ccc(-c2ccccc2F)o1
Assay by compound	11	12	13	14	15	16	17	18	19	20
miR-21 reporter	-3.2%	5.6%	-58.8%	16.2%	0.9%	.	15.3%	-41.8%	-8.7%	.
DT40 TDP1 no CPT	2.9%	16.4µM*	-1.9%	14.6µM*	-9.7%	.	18.4µM*	6.8%	-25.5%	18.4µM*
TDP1 cell CPT	1.1%	?	20.6%	0.82µM*	-15.4%	.	?	-0.3%	-8.8%	?
TDP1 block	3.3%	-2.3%	2.0%	.	7.2%	9.0%[21 µM]	-2.5%	2.9%	-1.1%	0.8%[56.1 µM]
uPA generation	3.9%	-9.1%	0.8%	11.2µM*	3.1%	.	1.4%	?	-2.4%	-4.3%

# Compounds listed so far that have a furan ring, fused or not (2):
[19] Cc1occc1C(=O)NCc1cccs1
[20] CCN(CC(=O)NCc1cccs1)C(=O)c1ccc(-c2ccccc2F)o1
Assay by compound	19	20
miR-21 reporter	-8.7%	.
DT40 TDP1 no CPT	-25.5%	18.4µM*
TDP1 cell CPT	-8.8%	?
TDP1 block	-1.1%	0.8%[56.1 µM]
uPA generation	-2.4%	-4.3%

# (further entries)
[21] COc1ccc(CC(=O)NCc2cccs2)cc1
[22] COc1ccc2cc3cc(C(=O)NCCc4ccc(OC)c(OC)c4)oc3nc2c1
[23] Cc1cc(C(=O)NCc2cccs2)c(C)o1
[24] COc1cccc(NC(=O)c2sc3nc(C)c(C(=O)Nc4ccc(C)cc4C)c(-c4ccccc4Cl)c3c2N)c1
[25] CCCCc1c(O)nc(SCC(=O)Nc2cccc3ccccc23)n(-c2ccccc2OC)c1=O
[26] COc1ccc2cc3cc(C(=O)NCc4cccs4)oc3nc2c1
[27] COc1ccc2cc3cc(C(=O)NCc4ccc(C)cc4)oc3nc2c1
[28] O=C(c1cccs1)N1CCc2c([nH]c3ccccc23)C1c1ccccn1 (stereo not given)
[29] CCc1nc(C)ccc1OCC(=O)N1CCc2c([nH]c3ccccc23)C1c1ccccn1 (stereo not given)
[30] COc1ccc(OCC(=O)N2CCc3c([nH]c4ccccc34)C2c2ccccn2)cc1 (stereo not given)
Assay by compound	21	22	23	24	25	26	27	28	29	30
miR-21 reporter	7.7%	13.5%	-6.3%	6.5%	4.5%	-12.0%	-6.1%	-7.8%	-5.6%	-0.5%
DT40 TDP1 no CPT	14.6µM*	18.4µM*	18.4µM*	?	8.5%	?	-16.3%	7.9%	23.1µM*	?
TDP1 cell CPT	23.1µM*	11.6µM*	25.9µM*	-23.7%	-1.2%	-24.0%	-3.7%	-17.0%	20.6µM*	?
TDP1 block	9.1%	5.2%	-5.6%	0.0%	3.2%	31.6µM*	2.3%	.	2.8%	0.0%
uPA generation	-7.0%	-1.1%	.	.	?	-4.6%	.	1.6%	10.5%	5.7%

[31] CC(=O)c1ccc(C(=O)N2CCc3c([nH]c4ccccc34)C2c2ccccn2)s1 (stereo not given)
[32] Cc1ccc2nc(C(=O)N3CCc4c([nH]c5ccccc45)C3c3ccccn3)cn2c1 (stereo not given)
[33] O=C(c1cc(-c2ccccc2)n[nH]1)N1CCc2c([nH]c3ccccc23)C1c1ccccn1 (stereo not given)
[34] COc1cccc(CNCC(O)COc2ccc(C(=O)c3ccccc3)cc2)c1 (stereo not given)
[35] O=C(c1ccccc1-n1cccn1)N1CCc2c([nH]c3ccccc23)C1c1ccccn1 (stereo not given)
[36] O=C(c1ccccc1-c1ncc[nH]1)N1CCc2c([nH]c3ccccc23)C1c1ccccn1 (stereo not given)
[37] O=C(O)CCCC(=O)N1N=C(c2c(-c3ccccc3)c3cc(Cl)ccc3[nH]c2=O)CC1c1cccs1 (stereo not given)
[38] O=C1NC(c2ccc(Br)cc2)=N/C1=C/c1ccco1
[39] O=C1NC(c2ccccc2Cl)=N/C1=C/c1ccco1
[40] CC1(C)[C@@H](O)CC[C@]2(C)[C@H]3C(=O)C=C4[C@@H]5C[C@@](C)(C(=O)O)CC[C@]5(C)CC[C@@]4(C)[C@]3(C)CC[C@@H]12
Assay by compound	31	32	33	34	35	36	37	38	39	40
miR-21 reporter	0.6%	1.6%	20.5%	-0.4%	-17.5%	1.7%	9.3%	-65.8%	-65.4%	-2.8%
DT40 TDP1 no CPT	20.6µM*	20.6µM*	20.6µM*	-28.5%	10.3µM*	?	2.6%	?	?	2.37µM*!
TDP1 cell CPT	?	?	18.4µM*	?	10.3µM*	?	-3.4%	7.31µM*	-12.1%	7.5µM*!
TDP1 block	0.0%	5.6%	8.6%	.	.	8.1%	2.7%	?	-8.2%	8.2%
uPA generation	-6.6%	-2.9%	-8.0%	-5.2%	4.0%	2.9%	7.4%	0.0%	-1.6%	-0.4%

# Reprinted from the part before: 2 entries; new compounds follow.
[39] O=C1NC(c2ccccc2Cl)=N/C1=C/c1ccco1
[40] CC1(C)[C@@H](O)CC[C@]2(C)[C@H]3C(=O)C=C4[C@@H]5C[C@@](C)(C(=O)O)CC[C@]5(C)CC[C@@]4(C)[C@]3(C)CC[C@@H]12
[41] Cc1ccc(NC(=O)CNC(=O)Cn2cnc3sc(C)c(C)c3c2=O)cc1F
[42] O=C(CSC(=S)N1CCOCC1)N1N=CCC1c1ccccc1 (stereo not given)
[43] COC(=O)c1ccc(NC(=O)c2snnc2-c2ccccc2)cc1
[44] COc1ccc(C(CCNCc2ccc(N(C)C)cc2)c2ccccc2)cc1 (stereo not given)
[45] COc1ccc(CNCCC(c2ccc3c(c2)OCO3)c2ccccc2OC)cc1 (stereo not given)
Assay by compound	39	40	41	42	43	44	45
miR-21 reporter	-65.4%	-2.8%	-8.4%	-9.2%	-8.8%	?	14.2%
DT40 TDP1 no CPT	?	2.37µM*!	-29.3%	-7.9%	?	20.6µM*	2.91µM*
TDP1 cell CPT	-12.1%	7.5µM*!	?	-5.9%	?	20.6µM*	6.51µM*
TDP1 block	-8.2%	8.2%	1.8%	-1.0%	0.0%	.	.
uPA generation	-1.6%	-0.4%	4.2%	-4.7%	0.8%	-4.4%	.
